Measured values from paper PMC12703749, “H2O2–Responsive Anticancer Prodrug: Synthesis, Precision Deuteration in Search of In Vivo Metabolites, and Activation Pathway” (Journal of Medicinal Chemistry, 2025).

Experiments:
MDA-MB-468 cells = experiment: Cell viability assay (CellTiter-Glo), MDA-MB-468; settings: MDA-MB-468 (cancer), 48 h, 37 °C, n = 3
[1] = tested on: MDA-MB-468 xenograft tumors; experiment: In vivo efficacy in MDA-MB-468 xenograft model; settings: 5 mg/kg IP, 8 weeks; IR = [1 – (mean treated/mean control tumor volume)] × 100

## Cc1cc(N(CCCl)CCCl)ccc1B(O)O
MDA-MB-468 cells
  IC50: 3.4 µM
[1]
  tumor growth inhibition rate (IR): 91%
